“And” between values parts separate entries of the source, which are not always exact repeats. Equal values may be shown once. The entries are a selection whose mix differs from that of the whole data set. The source made the active and inactive calls. Calls come from the whole dose curve; as a rule, active = well fitted activation curve with a large enough effect; inconclusive = small, poorly fitted or top-dose-only effect; inactive = no such curve, though single readings can be large or run the other way.
Test: qHTS Assay for Compounds that Induce Erasure of Genomic Imprints;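 note: 0% = negative control wells on the plate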
Details: mouse ES Peg3-LacZ reporter, beta-gal luminescence, 40 h; at 60.7 µM (top of the series)

| SMILES | activity change, positive = activation |
| --- | --- |
| O=[N+]([O-])C(Cl)(Cl)Cl | inactive: 4.17% |
| CN(CCCl)CCCl | inactive: -59% and inactive: -47.9% |

Source: PubChem BioAssay AID1948 (National Center for Advancing Translational Sciences (NCATS), 2009)
